# Assay results taken from patent publication US20090143450A1, “METHOD FOR TREATING CENTRAL PAIN SYNDROM OR FOR INDUCING CENTRALLY GENERATED PAIN IN AN ANIMAL MODEL” (UNIVERSITY OF MARYLAND, BALTIMORE, priority 2005, published 2009).
# Test system: thalamic relay cells (thalamic bursting)
# Assay: Extracellular recordings of evoked neuronal activity in ex vivo thalamic brain slices
# Assay type: cell-based, rat
# Details: 700 μM, FIG. 2
# Description: Spinothalamic tract transection. The spinothalamic tract is transected bilaterally at the level of the thoracic/lumbar border, thereby severing the ascending pathways conveying somatosensory, thermal and nociceptive information to the cortex via the thalamus. Male, adult Sprague-Dawley rats (ca. 200 gm) are anesthetized with pentobarbital and a T8 laminectomy is performed. The dura is opened with the tip of a 21 g. syringe needle to expose the spinal cord. The spinal cord is then lifted and rotated using a fine, sterile glass rod, and the ventral lateral pain pathways are severed electrolytically using a 1 MΩ sharpened tungsten needle and a 45 V pulse for 1 min. The lesion is packed with a small piece of sterile gelfoam. The overlying muscles and skin are closed and sutured, and the animal is allowed to recover on a 37° C. heating pad. Sham-operated controls undergo a laminectomy without dural penetration or spinal injury. This spinal transection procedure is a useful model of central pain syndrome where increased pain sensitivity and allodynia were observed. At various times after the lesion, standard behavioral tests were completed to assay the threshold for a stimulus to be perceived as painful, and allodynia was performed on awake, behaving animals. These procedures have been fully approved by the University of Maryland School of Medicine Animal Care and Use Committee. […]
structure (smiles),measurement,setting,value
"CCC1(C)CC(=O)NC1=O (centres unmarked) [ethosuximide, 2-methyl-2-ethyl succinimide]",bursting activity in the lesioned slices,"bath perfusion, thalamic slices from animal with spinothalamic tract lesioned 19 days earlier",blocked the bursting activity
same,normal evoked responses in control slices,slices from sham control animal,without affecting the normal evoked responses
